How the values were obtained:
[1] = target: SOS1 nucleotide exchange of wild-type KRAS (Homo sapiens (Human), UniProt Q07889); assay: Mode of action assay: inhibition of SOS1 nucleotide exchange activity (TR-FRET); format: biochemical
[2] = target: SOS1 catalytic domain (residues 564-1049) (Homo sapiens (Human), UniProt Q07889); assay: Potency assay: binding affinity to SOS1 by Surface Plasmon Resonance (SPR); details: read-out: SOS1 SPR Equilibrium Kd

By UniProt entry, the sequences of proteins in these tests, tags left out. Residues count along the entry.
UniProt Q07889, 564-1049: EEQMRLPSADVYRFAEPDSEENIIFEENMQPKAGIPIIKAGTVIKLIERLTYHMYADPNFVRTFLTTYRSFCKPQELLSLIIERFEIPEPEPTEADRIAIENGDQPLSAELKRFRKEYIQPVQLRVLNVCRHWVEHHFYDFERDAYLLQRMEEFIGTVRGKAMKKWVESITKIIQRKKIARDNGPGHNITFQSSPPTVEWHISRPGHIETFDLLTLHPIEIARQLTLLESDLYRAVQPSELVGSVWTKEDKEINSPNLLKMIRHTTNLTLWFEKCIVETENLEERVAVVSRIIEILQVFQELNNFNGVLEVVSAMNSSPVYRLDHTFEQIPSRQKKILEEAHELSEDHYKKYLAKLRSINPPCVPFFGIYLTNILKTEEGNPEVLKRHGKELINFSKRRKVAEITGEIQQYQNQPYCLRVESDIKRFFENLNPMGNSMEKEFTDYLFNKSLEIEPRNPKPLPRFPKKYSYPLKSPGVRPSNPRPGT

## C[C@@H](Nc1ncnc2c1cc(C1(O)CCN(C)CC1)c(=O)n2C)c1cccc(C(F)F)c1F [Example 28-1]
[1]
  IC50: 0.0659 µM
[2]
  Kd: 0.0704 µM
